{"source": "paper PMC3210965", "about": "(Chemical research in toxicology, 2011)", "key": {"[1]": {"target": "T1, rat TrxR (Rattus norvegicus, UniProt O89049)", "T1 sequence (O89049 1-499)": "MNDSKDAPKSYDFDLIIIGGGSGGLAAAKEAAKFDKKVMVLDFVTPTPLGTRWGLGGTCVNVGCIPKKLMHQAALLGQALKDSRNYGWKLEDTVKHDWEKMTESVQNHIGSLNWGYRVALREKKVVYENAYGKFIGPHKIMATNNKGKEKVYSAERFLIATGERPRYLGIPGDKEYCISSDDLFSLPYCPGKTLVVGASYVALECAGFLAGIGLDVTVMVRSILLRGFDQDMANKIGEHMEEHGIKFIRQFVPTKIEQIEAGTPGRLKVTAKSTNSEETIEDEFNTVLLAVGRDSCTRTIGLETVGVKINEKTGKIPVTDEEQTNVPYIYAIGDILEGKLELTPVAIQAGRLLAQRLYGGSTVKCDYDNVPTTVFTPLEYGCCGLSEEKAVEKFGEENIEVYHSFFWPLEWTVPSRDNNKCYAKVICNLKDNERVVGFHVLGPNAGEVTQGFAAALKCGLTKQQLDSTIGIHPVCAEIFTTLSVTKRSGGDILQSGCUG"}, "[2]": {"settings": "cited from earlier work"}, "[3]": {"tested_on": "HeLa cells", "experiment": "Cell viability MTS assay", "format": "cell-based, human"}}}
{"smiles": "CC1=C2C(=C[C@@](C)(CO)[C@@H]2O)C(=O)[C@](C)(O)C12CC2", "note": "[illudin S]", "values": [{"measurement": "IC50 toward TrxR relative to that of the AFs", "setting": "[1]", "value": 100, "unit": "fold"}, {"measurement": "toxicity in vitro relative to AF", "setting": "[2]", "value": "around 30 fold"}, {"measurement": "toxicity relative to AF", "setting": "[3]; concentration range tested", "value": "at least 100 fold"}, {"measurement": "inhibition of cell viability", "setting": "[3]; concentrations higher than 1 μM", "value": "more than 40%"}]}
